## scFv variants of Ab-14 (light chain) against a SARS-CoV-2 spike peptide

All variants were tested on one target, the spike HR2 peptide PDVDLGDISGINAS (SARS-CoV-2).

Ab-14 is the parent antibody, in scFv form: VH, then three GGGGS repeats, then VL. The heavy chain is unchanged in all variants.
VH: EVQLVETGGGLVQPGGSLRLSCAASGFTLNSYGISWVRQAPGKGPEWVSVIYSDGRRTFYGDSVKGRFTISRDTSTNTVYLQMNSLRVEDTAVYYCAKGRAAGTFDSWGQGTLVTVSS
VL: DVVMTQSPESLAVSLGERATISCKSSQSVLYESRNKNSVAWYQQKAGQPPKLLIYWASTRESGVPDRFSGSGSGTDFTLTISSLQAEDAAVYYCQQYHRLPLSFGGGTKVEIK

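The parent was found by panning a naive human phage display library on the peptide. The variants were designed computationally from a first round of random CDR variants and then made and measured. Several design methods are mixed in this list. Affinity was read by AlphaSeq, a pooled yeast mating assay with surface-displayed partners. Pairs that bind mate more often; barcode pairs of the diploids are counted by sequencing. Read counts were normalised to the haploid input and turned into Kd by a linear fit to BCL2-family pairs of known affinity, for each replicate. Mating was done six times.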

Variants are written as CDR1, CDR2 and CDR3 of the light chain (limits as in the source). Parent: KSSQSVLYESRNKNSVA, WASTRES, QQYHRLPLS.
Variants here have at most six changes.
Values are apparent Kd, the geometric mean of the replicates that gave a signal; lower means stronger binding.
Where no diploid with the target was found in any replicate, the entry reads "nd": below detection, most likely a poor binder, though not proof of it.
In the paper, a design with two or fewer of six values counts as a poor binder.
The parent sequence was in this pool as ten entries: three were never detected, three once, and four in most replicates, with averages from 2.2 nM to 240 nM.
The range of this assay differs from that of the first round, and the authors advise against merging the two.
Where one sequence has several entries in the source, the replicates are pooled.
Nonspecific signal, from three strains lacking the peptide, appeared in 4% of pairings of all light chain designs, centred on 430 nM (5% of these signals below 38 nM); values are not corrected for it.

The variant KFQQSWLYESRNKNSVA / NASTRLS / QQYHRLPLS gave 700 pM (6 of 6 replicates). For KSSWAVLHESTNKNSVA / WASTRES / QQYHRLPLS, the assay gave 53 nM (6 of 6 replicates). The variant KLEMSVLYESRNKNSVA / NASTRES / QQYHRLPLS gave 390 pM (6 of 6 replicates). The variant KCSQSWLYEDRNKNSVA / GASTRES / QQYHRLPLS showed 1.5 nM (6 of 6 replicates). The variant KSMQSVDGESRNKNSVA / SAQTREE / QQYHRLPLS gave 1.1 nM (6 of 6 replicates). With KLSQSVLYESRNKNSVA / EAKTRES / QQYHRLPLS the result was 490 pM (6 of 6 replicates).

For KSSQSVLYEDRNKNSVA / WASTQES / QQYHRLPLS, the assay gave nd (0 of 6 replicates). With KSSQSELYESRNKNSVA / NASTRES / QQYHRLPLS the result was 2.0 nM (12 of 12 replicates). The variant KSSQSVLEDSRNKNSVA / WASTRES / QQYHRLPLS gave 13 nM (6 of 6 replicates). With KSSQSLLYEMDNKNSVA / WASTRES / QQYHRLPLS the result was 290 nM (4 of 6 replicates). With KLRFSVMLESRNKNSVA / SASTRES / QQYHRLPLS the result was 720 pM (6 of 6 replicates). With KSSQSVLTESRNKNSVA / SASTRES / QQYHRLPLS the result was 4.5 nM (6 of 6 replicates).

The variant KSIQSTLYESRNKNSVA / WASTRES / QQVHRLPLS showed nd (0 of 6 replicates). For KSSQSVLYESRNKGSVA / WASTRES / QQYHALPLS, the assay gave nd (0 of 6 replicates). For KSSWSYLYESMNKNSVA / NGSTRES / QQYHRLPLS, the assay gave 25 nM (4 of 6 replicates). With KLSQSFLYESRQKNSVA / NASQRES / QQYHRLPLS the result was 360 pM (6 of 6 replicates). The variant KISQSVLYESANKNFVA / WASTRES / QQYHKLPLS gave 78 nM (6 of 6 replicates). With KLSQSTLYESRNKNSVA / NASTREE / QQYHRLPLS the result was 630 pM (6 of 6 replicates).

With KIEQSVLVESRNKNSVA / WASTRES / QQYHRLPLS the result was 120 nM (5 of 6 replicates). The variant KLSQSYLYESRNKNSVA / NASTREK / QQYHRLPLS gave 480 pM (6 of 6 replicates). The variant KMSQSVLYESHNKNSVA / WASTRES / QQYHRLPLS showed 5.2 nM (6 of 6 replicates). The variant KSSQSVLYESRNKNNVA / WASTREL / QQYHRLPLS showed 1.5 µM (5 of 6 replicates). With KFSHSELPEARNKNSVA / WASTRTS / QQYHRLPLS the result was 3.1 nM (6 of 6 replicates). The variant HSSPSVLYESRNGNSVA / NASTREK / QQYHRLPLS gave 1.3 nM (6 of 6 replicates).

With KDSQSVLYESRNKNMVA / WASTRES / QQYHREPLS the result was 180 nM (1 of 6 replicates). The variant KSSQSVMYESRNKNSVA / AASTRES / QQYHRDPLS showed 130 nM (6 of 6 replicates). The variant QSSQSVLKESRNKNSVA / WASTRES / QQYHRLPLS showed 14 nM (6 of 6 replicates). The variant KISQSVLYESRNKNSVA / NASTRES / QQYWRLLLS gave 5.3 nM (6 of 6 replicates). With KVSQSWLYESRNKNSVA / NASTREQ / QQYHRLPLS the result was 680 pM (6 of 6 replicates). For KSSQEQLPESRMKNSVA / AASTRES / QQYHRLPLS, the assay gave 1.9 nM (6 of 6 replicates).

The variant KSWQSVLYESRNKNSVA / WASTRES / QQYHRLPLS showed 39 nM (1 of 6 replicates). The variant KWSQSWLYEDRVKNSVA / GASTRES / QQYHRLPLS showed 610 pM (6 of 6 replicates). The variant KWSQSVLYESRNKNSVA / WASTLES / QQYHRLPLS showed nd (0 of 6 replicates). The variant KSEQSVLYESRNFNSVA / HASTRED / QQYHRLPLS gave 5.7 nM (6 of 6 replicates). The variant KSSQSALDDSRNKNSVA / WASTREQ / QQYHRLPLS gave 14 nM (6 of 6 replicates). For KLRMSWLYESRNKNSVA / NASTRES / QQYHRLPLS, the assay gave 1.6 nM (6 of 6 replicates).

The variant KFSQSVLYESRNKNSVA / NASTREA / QQYHRLPLS gave 510 pM (6 of 6 replicates).

Picked from the list: the 6 lowest averages where every replicate gave a value.

| CDR-L1 | CDR-L2 | CDR-L3 | Kd | detected |
|---|---|---|---|---|
| KLSQSFLYESRQKNSVA | NASQRES | QQYHRLPLS | 360 pM | 6 of 6 |
| KLEMSVLYESRNKNSVA | NASTRES | QQYHRLPLS | 390 pM | 6 of 6 |
| KLSQSYLYESRNKNSVA | NASTREK | QQYHRLPLS | 480 pM | 6 of 6 |
| KLSQSVLYESRNKNSVA | EAKTRES | QQYHRLPLS | 490 pM | 6 of 6 |
| KFSQSVLYESRNKNSVA | NASTREA | QQYHRLPLS | 510 pM | 6 of 6 |
| KWSQSWLYEDRVKNSVA | GASTRES | QQYHRLPLS | 610 pM | 6 of 6 |

Source: Li et al. 2023 (doi:10.1038/s41467-023-39022-2), MIT Lincoln Laboratory and A-Alpha Bio; data file from the FLAb repository.